By UniProt entry, the sequences of proteins in these tests, tags left out.
UniProt Q99705, whole entry E4Q/A5T: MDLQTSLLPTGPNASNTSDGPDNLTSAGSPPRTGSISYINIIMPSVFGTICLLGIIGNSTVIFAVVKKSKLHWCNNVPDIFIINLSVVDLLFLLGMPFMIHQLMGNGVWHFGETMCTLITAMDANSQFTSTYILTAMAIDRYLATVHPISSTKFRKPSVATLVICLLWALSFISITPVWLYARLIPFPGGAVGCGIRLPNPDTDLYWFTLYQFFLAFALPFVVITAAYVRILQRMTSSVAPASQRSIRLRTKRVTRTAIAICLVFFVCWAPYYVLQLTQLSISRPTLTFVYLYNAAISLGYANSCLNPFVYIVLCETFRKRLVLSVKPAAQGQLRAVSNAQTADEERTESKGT

According to US9499482B2, “Pyrrolone or pyrrolidinone melanin concentrating hormone receptor-1 antagonists” (BRISTOL-MYERS SQUIBB COMPANY, priority 2012, dated 2016):

Target: human melanin concentrating hormone receptor (MCHR1), mutated (E4Q, A5T) hMCHR1 (Homo sapiens (Human), UniProt Q99705, A5T/E4Q)
Assay: Radioligand binding assay for assessment of MCHR1 activity ([125I]-MCH competition, HEK-293 membranes)
Conditions: Table G
Protocol: Radioligand Binding Assay for Assessment of MCHR1 Activity
An in vitro binding assay was used to determine the compound Ki value or ability to antagonize binding of a peptide agonist to the human melanin concentrating hormone receptor (MCHR1). Membranes from stably transfected HEK-293 cells expressing a mutated (E4Q, A5T) hMCHR1 receptor were prepared by dounce homogenization and differential centrifugation. […] Filters were dried, 0.05 mL MicroScint 20 was added to each well and radioactivity was subsequently quantified by scintillation counting on a TOPCOUNT® microplate scintillation counter (Packard). Inhibitory constants were determined by nonlinear least squares analysis using a four parameter logistic equation.

| Ki [nM] | Structure (SMILES) |
| --- | --- |
| 0.4 | COc1cc(N2CC=C(Oc3ccc(-c4ccccc4)cc3)C2=O)ccc1OCCN1CCC[C@H]1CO [Example 214] |

Same assay, conditions: Table I

| Ki [nM] | Structure (SMILES) |
| --- | --- |
| 51 | O=C1C(Oc2ccc(C3CC3)cc2)=CCN1[C@H]1CC[C@H](OCCN2CCC(F)(F)CC2)CC1 [Example 250] |

Same assay, conditions: Table J

| Ki [nM] | Structure (SMILES) |
| --- | --- |
| 1.2 | O=C1C(Oc2ccc(C3CC3)cc2)=CCN1c1ccc2c(cnn2CCN2CCC2)c1 [Example 259] |
| 0.8 | O=C1C(Oc2ccc(C3CC3)cc2)=CCN1c1ccc2c(cnn2CCN2CCC[C@H](O)C2)c1 [Example 257] |
| 59 | O=C1C(Oc2ccc(C3CC3)cc2)=CCN1c1ccc2c(cnn2CCN2CCC(F)(F)C2)c1 [Example 265] |
| 0.8 | O=C1C(Oc2ccc(C3CC3)cc2)=CCN1c1ccc2c(cnn2CCN2CC[C@H](O)C2)c1 [Example 264] |

Same assay, conditions: Table L

| Ki [nM] | Structure (SMILES) |
| --- | --- |
| 189 | COc1cc(N2CC=C(Oc3ccc(C4CC4)cc3)C2=O)ccc1CN1CC(S(C)(=O)=O)C1 [Example 273] |
| 154 | COc1cc(N2CC=C(Oc3ccc(C4CC4)cc3)C2=O)ccc1CN1CC(C)(O)C1 [Example 277] |

Same assay, conditions: membranes from HEK-293 cells expressing mutated (E4Q, A5T) hMCHR1; 0.06-0.1 nM [Phe13,[125I]Tyr19]-MCH

| Structure (SMILES) | Ki [nM] |
| --- | --- |
| COc1cc(N2CC[C@H](Oc3ccc(C4CC4)cc3)C2=O)ccc1OCCN(C)S(=O)(=O)c1sc(NC(C)=O)nc1C [Example 118] | 85 |
| Cc1cc(N2CC[C@@H](Oc3ccc(C4CC4)cc3)C2=O)ccc1OCCN1CCCC1 [Example 64, R-3-(4-Cyclopropylphenoxy)-1-(3-methyl-4-(2-(pyrrolidin-1-yl)ethoxy)phenyl)pyrrolidin-2-one] | 13 |
| COc1cc(N2CC[C@H](Oc3ccc(C4CC4)cc3)C2=O)ccc1OCCN(C)S(=O)(=O)c1c(C)noc1C [Example 124] | 19 |
| COc1cc(N2CC[C@H](Oc3ccc(C4CC4)cc3)C2=O)ccc1OCCNC(C)(C)C [Example 24] | 2 |
| CCc1cc(N2CC[C@H](Oc3ccc(C4CC4)cc3)C2=O)ccc1OCCN1CC(O)C1 [Example 53] | 3 |
| CCc1cc(N2CC[C@H](Oc3ccc(C4CC4)cc3)C2=O)ccc1OCCN1CC[C@H](O)C1 [Example 49] | 1.5 |
| Cc1cc(N2CC[C@H](Oc3ccc(C4CC4)cc3)C2=O)ccc1OCCN1CCNC(=O)C1 [Example 76] | 5 |
| CCc1cc(N2CC[C@H](Oc3ccc(C4CC4)cc3)C2=O)ccc1OCCN1C[C@@H](O)[C@@H](O)C1 [Example 56] | 3 |
| Cc1cc(N2CC[C@H](Oc3ccc(C4CC4)cc3)C2=O)ccc1OCCN1CCC(F)(F)C1 [Example 71] | 7 |
| COc1cc(N2CC[C@H](Oc3ccc(C4CC4)cc3)C2=O)ccc1OCCN(C)S(=O)(=O)CC(F)(F)F [Example 121] | 21 |
| O=C1C(Oc2ccc(C3CC3)cc2)=CCN1[C@H]1C[C@@H](OCCN2CC(O)(C3CC3)C2)C1 [Example 234] | 654 |
| Cc1cc(N2CC[C@H](Oc3ccc(C4CC4)cc3)C2=O)ccc1OCCN1CC[C@@H](O)C1 [Example 69] | 1.1 |
| COc1cc(N2CC[C@H](Oc3ccc(C4CC4)cc3)C2=O)ccc1OCCN(C)S(=O)(=O)C(C)C [Example 120] | 8 |
| CCc1cc(N2CC[C@H](Oc3ccc(C4CC4)cc3)C2=O)ccc1N1CCCC1 (stereo in doubt) [Example 136, 3-(4-cyclopropylphenoxy)-1-(3-ethyl-4-(pyrrolidin-1-yl)phenyl)pyrrolidin-2-one] | 167 |
| COc1cc(N2CC[C@H](Oc3ccc(C4CC4)cc3)C2=O)ccc1OCCN1CC(N2CCCC2)C1 [Example 39] | 1.6 |
| CCCS(=O)(=O)N(C)CCOc1ccc(N2CC[C@H](Oc3ccc(C4CC4)cc3)C2=O)cc1OC [Example 123] | 8 |

| Structure (SMILES) | Ki [nM] |
| --- | --- |
| COc1cc(N2CC[C@H](Oc3ccc(C4CC4)cc3)C2=O)ccc1OCCN(C)S(=O)(=O)c1cnoc1C [Example 126] | 35 |
| COc1cc(N2CC[C@H](Oc3ccc(C4CC4)cc3)C2=O)ccc1O[C@H]1CCNC1 [Example 139, (S)-3-(4-Cyclopropylphenoxy)-1-(3-methoxy-4-((S)-pyrrolidin-3-yloxy)phenyl)pyrrolidin-2-one] | 5 |
| CC1(O)CN(CCO[C@H]2C[C@@H](N3CC=C(Oc4ccc(C5CC5)cc4)C3=O)C2)C1 [Example 240] | 3000 |
| O=C1C(Oc2ccc(C3CC3)cc2)=CCN1[C@H]1C[C@@H](OCCN2CC[C@@H](O)C2)C1 [Example 241] | 2360 |
| Cc1cc(N2CC[C@H](Oc3ccc(C4CC4)cc3)C2=O)ccc1OCCN1CC[C@H](F)C1 [Example 80] | 1.1 |
| O=C1[C@@H](Oc2ccc(C3CC3)cc2)CCN1c1ccc(OCCN2CCOCC2)c(Cl)c1 [Example 102] | 2 |
| COC1CN(CCn2cc(N3CC=C(Oc4ccc(C5CC5)cc4)C3=O)cn2)C1 [Example 270] | 400 |
| O=C1[C@@H](Oc2ccc(C3CC3)cc2)CCN1c1ccc(OCCN2CC[C@H](F)C2)c(Cl)c1 [Example 97] | 3 |
| Cc1cc(N2CC[C@H](Oc3ccc(C4CC4)cc3)C2=O)ccc1OCCN1CC[C@@H](F)C1 [Example 70] | 1 |
| O=C1CN(CCOc2ccc(N3CC[C@H](Oc4ccc(C5CC5)cc4)C3=O)cc2Cl)CCN1 [Example 103] | 12 |
| O=C1[C@@H](Oc2ccc(C3CC3)cc2)CCN1c1ccc(OCCN2CC(O)C2)c(Cl)c1 [Example 106] | 1.3 |
| Cc1cc(N2CC[C@H](Oc3ccc(C4CC4)cc3)C2=O)ccc1OCCNCC#N [Example 85] | 7 |
| Cc1cc(N2CC[C@H](Oc3ccc(C4CC4)cc3)C2=O)ccc1OCCNC1(CO)CCCC1 [Example 84] | 0.9 |
| CN(CCO)CCOc1ccc(N2CC[C@H](Oc3ccc(C4CC4)cc3)C2=O)cc1Cl [Example 99] | 1.2 |
| Cc1cc(N2CC[C@H](Oc3ccc(C4CC4)cc3)C2=O)ccc1OCCN1CCOCC1 [Example 75] | 2 |

The remaining lines, values ahead:

| Ki [nM] | Structure (SMILES) |
| --- | --- |
| 5 | COc1cc(N2CC[C@H](Oc3ccc(C4CC4)cc3)C2=O)ccc1OCCN(C)S(=O)(=O)CC(C)C [Example 127] |
| 2.3 | COc1cc(N2CC=C(Oc3ccc(C4CC4)cc3)C2=O)ccc1OCCN1CC(S(C)(=O)=O)C1 [Example 160] |
| 1.4 | COc1cc(N2CC[C@H](Oc3ccc(C4CC4)cc3)C2=O)ccc1OCCN1CC[C@H](OC)C1 [Example 32] |
| 1.6 | COc1cc(N2CC[C@H](Oc3ccc(C4CC4)cc3)C2=O)ccc1OCCN1CCC[C@H](O)C1 [Example 19] |
| 1 | CCc1cc(N2CC[C@H](Oc3ccc(C4CC4)cc3)C2=O)ccc1OCCN1CCC[C@@H]1CO [Example 51] |
| 12 | CCc1cc(N2CC[C@@H](Oc3ccc(-c4ccccc4)cc3)C2=O)ccc1OCCN1CCCC1 (stereo in doubt) [Example 111, 3-(biphenyl-4-yloxy)-1-(3-ethyl-4-(2-(pyrrolidin-1-yl)ethoxy)phenyl)pyrrolidin-2-one] |
| 16 | COc1cc(N2CC[C@H](Oc3ccc(C4CC4)cc3)C2=O)ccc1OCCN(C)S(=O)(=O)c1ccccc1 [Example 119] |
| 5.2 | CS(=O)(=O)C1CN(CCOc2ccc(N3CC=C(Oc4ccc(C5CC5)cc4)C3=O)cc2OC(F)F)C1 [Example 186] |
| 2 | COc1cc(N2CC[C@H](Oc3ccc(C4CC4)cc3)C2=O)ccc1OCCN(C)CCO [Example 11] |
| 6 | CCS(=O)(=O)N(C)CCOc1ccc(N2CC[C@H](Oc3ccc(C4CC4)cc3)C2=O)cc1OC [Example 122] |
| 1.4 | Cc1cc(N2CC[C@H](Oc3ccc(C4CC4)cc3)C2=O)ccc1OCCN1CCC[C@@H]1CO [Example 78] |
| 4 | COc1cc(N2CC[C@H](Oc3ccc(C4CC4)cc3)C2=O)ccc1OCCN1CCN(C)CC1 [Example 33] |
| 0.5 | COc1cc(N2CC=C(Oc3ccc(C4CC4)cc3)C2=O)ccc1OCCN1CC(C)(OC)C1 [Example 161] |
| 0.9 | O=C1C(Oc2ccc(C3CC3)cc2)=CCN1c1ccc(OCCN2CC(O)C2)c(Br)c1 [Example 192] |
| 4 | COc1cc(N2CC[C@H](Oc3ccc(C4CC4)cc3)C2=O)ccc1OCCN1CCC(F)(F)CC1 [Example 20] |
| 2 | COc1cc(N2CC[C@H](Oc3ccc(C4CC4)cc3)C2=O)ccc1OCCN1CC[C@@H](O)C1 [Example 6] |
| 0.6 | CC1(O)CN(CCOc2ccc(N3CC=C(Oc4ccc(C5CC5)cc4)C3=O)cc2OC(F)F)C1 [Example 190] |
| 2 | COc1cc(N2CC[C@H](Oc3ccc(C4CC4)cc3)C2=O)ccc1OCCNC1(CO)CCCC1 [Example 25] |
| 1.3 | CCc1cc(N2CC=C(Oc3ccc(C4CC4)cc3)C2=O)ccc1OCCN1CC[C@@H](O)C1 [Example 174] |
| 24 | COc1cc(N2CC[C@@H](Oc3ccc(C4CC4)cc3)C2=O)ccc1OCCN1CCCC1 (stereo in doubt) [Example 2, 3-(4-cyclopropylphenoxy)-1-(3-methoxy-4-(2-(pyrrolidin-1-yl)ethoxy)phenyl)pyrrolidin-2-one] |
| 3 | COc1cc(N2CC[C@H](Oc3ccc(C4CC4)cc3)C2=O)ccc1OCCN [Example 35] |
| 4 | COc1cc(N2CC[C@H](Oc3ccc(C4CC4)cc3)C2=O)ccc1OCCN1CCN(c2cnccn2)CC1 [Example 22] |
| 1 | O=C1[C@@H](Oc2ccc(C3CC3)cc2)CCN1c1ccc(OCCN2CCC[C@@H]2CO)c(Cl)c1 [Example 101] |
| 2 | COc1cc(N2CC[C@H](Oc3ccc(C4CC4)cc3)C2=O)ccc1OCCNCCN1CCCC1 [Example 23] |
| 3 | COc1cc(N2CC[C@H](Oc3ccc(C4CC4)cc3)C2=O)ccc1OCCN1CC(C)(O)C1 [Example 40] |
| 3 | COc1cc(N2CC[C@H](Oc3ccc(C4CC4)cc3)C2=O)ccc1OCCN1C[C@@H](O)[C@@H](O)C1 [Example 37] |
| 2 | COc1cc(N2CC[C@H](Oc3ccc(C4CC4)cc3)C2=O)ccc1OCCN1CCCC1 (stereo in doubt) [Example 1, 3-(4-cyclopropylphenoxy)-1-(3-methoxy-4-(2-(pyrrolidin-1-yl)ethoxy)phenyl)pyrrolidin-2-one] |
